Data reported in patent US8722683B2, “Benzodioxole piperazine compounds” (Hoffmann LA-Roche Inc., priority 2011, dated 2014).

The chains behind the UniProt entries cited, without tags or fusion partners.
UniProt P14416, whole entry: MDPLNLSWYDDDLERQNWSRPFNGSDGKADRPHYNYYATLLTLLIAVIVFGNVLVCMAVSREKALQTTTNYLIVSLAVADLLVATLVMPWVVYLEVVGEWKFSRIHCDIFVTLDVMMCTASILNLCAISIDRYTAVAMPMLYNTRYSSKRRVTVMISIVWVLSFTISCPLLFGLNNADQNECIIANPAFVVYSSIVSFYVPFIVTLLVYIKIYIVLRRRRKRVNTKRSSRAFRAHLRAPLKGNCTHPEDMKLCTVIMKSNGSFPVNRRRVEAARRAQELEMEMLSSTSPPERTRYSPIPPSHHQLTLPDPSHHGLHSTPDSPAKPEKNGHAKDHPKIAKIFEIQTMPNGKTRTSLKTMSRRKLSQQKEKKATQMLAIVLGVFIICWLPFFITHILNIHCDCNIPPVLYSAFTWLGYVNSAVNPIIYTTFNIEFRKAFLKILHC
UniProt P35462, whole entry: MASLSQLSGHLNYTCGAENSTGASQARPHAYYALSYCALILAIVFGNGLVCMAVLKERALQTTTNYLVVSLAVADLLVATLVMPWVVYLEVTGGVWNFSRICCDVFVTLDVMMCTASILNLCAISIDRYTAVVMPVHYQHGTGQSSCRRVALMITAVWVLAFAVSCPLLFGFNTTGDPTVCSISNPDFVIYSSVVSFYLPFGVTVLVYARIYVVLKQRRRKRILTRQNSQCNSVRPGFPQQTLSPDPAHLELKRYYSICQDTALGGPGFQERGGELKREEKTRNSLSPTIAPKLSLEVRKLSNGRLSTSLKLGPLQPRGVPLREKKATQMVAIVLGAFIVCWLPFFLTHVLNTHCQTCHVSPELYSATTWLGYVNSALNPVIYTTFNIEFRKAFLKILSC

Target: D2 receptor (Homo sapiens (Human), UniProt P14416)
Assay: Radioligand binding ([3H]-spiperone) to cloned D2 receptor expressed in HEK-293 EBNA cells
Conditions: HEK293 EBNA membranes, 0.7 nM [3H]-spiperone
Method: HEK293 EBNA cells were transiently transfected with expression plasmids encoding for the human D2 or D3 or for the human 5-HT2A receptor, respectively. The cells were harvested 48 h post-transfection, washed three times with cold PBS and stored at −80° C. prior to use. The pellet was suspended in cold 50 mM Tris-HCl buffer containing 10 mM EDTA (pH 7.4) and was homogenized with a Polytron (Kinematica AG, Basel, Switzerland) for 20-30 sec at 12.000 rpm. After centrifugation at 48.000×g for 30 min at 4° C., the pellet was resuspended in cold 10 mM Tris-HCl buffer containing 0.1 mM EDTA (pH 7.4), homogenized, and centrifuged as above. […] The protein content of this homogenate was determined with the Bio-Rad (Bradford) Protein Assay (Biorad Laboratories GmbH, München, Germany) according to the instructions of the manufacturer using gamma globulin as the standard. […]
The binding affinity (Ki) of the compounds was determined using radioligand binding. […] The nonspecific binding was determined with equally composed reaction mixtures in the presence of 10 μM unlabelled spiperone. Per well 45 μl of Microscint 40 (Perkin Elmer, Schwerzenbach, Switzerland) was added, plates for sealed, shaken for 20 min and counted for 3 min on a Topcount Microplate Scintillation Counter (Canberra Packard SA, Zürich, Switzerland) with quenching correction. […]

**Q.** `O=S(=O)(N[C@H]1CC[C@H](CCN2CCN(c3cccc4c3OCO4)CC2)CC1)c1ccccc1` [Example 67, N-trans-{4-[2-(4-Benzo[1,3]dioxol-4-yl-piperazin-1-yl)-ethyl]-cyclohexyl}-benzenesulfonamide] was tested. Which Ki did it give?
**A.** The Ki was 72.4 nM.

**Q.** For `Cn1cnc(S(=O)(=O)N[C@H]2CC[C@H](CCN3CCN(c4cccc5c4OCO5)CC3)CC2)c1` [Example 69, 1-Methyl-1H-imidazole-4-sulfonic acid-trans-N-{4-[2-(4-benzo[1,3]dioxol-4-yl-piperazin-1-yl)-ethyl]-cyclohexyl}-amide], which Ki is on record?
**A.** The Ki was 55.3 nM.

Target: D3 receptor (Homo sapiens (Human), UniProt P35462)
Assay: Radioligand binding ([3H]-spiperone) to cloned D3 receptor expressed in HEK-293 EBNA cells
Conditions: HEK293 EBNA membranes, 0.5 nM [3H]-spiperone
Method: HEK293 EBNA cells were transiently transfected with expression plasmids encoding for the human D2 or D3 or for the human 5-HT2A receptor, respectively. The cells were harvested 48 h post-transfection, washed three times with cold PBS and stored at −80° C. prior to use. The pellet was suspended in cold 50 mM Tris-HCl buffer containing 10 mM EDTA (pH 7.4) and was homogenized with a Polytron (Kinematica AG, Basel, Switzerland) for 20-30 sec at 12.000 rpm. After centrifugation at 48.000×g for 30 min at 4° C., the pellet was resuspended in cold 10 mM Tris-HCl buffer containing 0.1 mM EDTA (pH 7.4), homogenized, and centrifuged as above. This pellet was further resuspended in a smaller volume of ice cold 10 mM Tris-HCl buffer containing 0.1 mM EDTA (pH 7.4) and homogenized with a Polytron for 20-30 sec at 12.000 rpm. The protein content of this homogenate was determined with the Bio-Rad (Bradford) Protein Assay (Biorad Laboratories GmbH, München, Germany) according to the instructions of the manufacturer using gamma globulin as the standard. This homogenate was stored at −80° C. in aliquots and thawed immediately prior to use.
Radioligand Binding Assay
Aliquots of membrane preparations were thawed at RT, resupended in assay buffer (D2, D3: 50 mM Tris-HCl, 120 mM NaCl, 5 mM MgCl2, 1 mM EDTA, 5 mM KCl, 1.5 mM CaCl2, pH=7.4; 5-HT2A: 50 mM Tris-HCl, 10 mM MgCl2, 1 mM EGTA, pH=7.4), homogenized with a Polytron for 20-30 sec at 12.000 rpm and adjusted to a final concentration of approximately 7.5 μg protein/well (D2, D3) and 15 μg protein/well (5-HT2A), respectively.
The binding affinity (Ki) of the compounds was determined using radioligand binding. […] The nonspecific binding was determined with equally composed reaction mixtures in the presence of 10 μM unlabelled spiperone. Per well 45 μl of Microscint 40 (Perkin Elmer, Schwerzenbach, Switzerland) was added, plates for sealed, shaken for 20 min and counted for 3 min on a Topcount Microplate Scintillation Counter (Canberra Packard SA, Zürich, Switzerland) with quenching correction.
The CPM value for each duplicate of a concentration of competing compound was averaged (y1), then the % specific binding was calculated according to the equation (((y1−non-specific)/(total binding−non-specific))×100). […] The affinity constant (Ki) was calculated using the Cheng-Prusoff equation Ki=(IC50/1+([L]/Kd), where [L] is the concentration of radioligand and Kd is the dissociation constant of the radioligand at the receptor as determined by the saturation isotherm.

**Q.** How did the Ki turn out when `O=C(C[C@@H]1CCCOC1)N[C@H]1CC[C@H](CCN2CCN(c3cccc4c3OCO4)CC2)CC1` (single isomer, unassigned) [Example 32, Trans-N-{4-[2-(4-Benzo[1,3]dioxol-4-yl-piperazin-1-yl)-ethyl]-cyclohexyl}-2-(S) or (R)-tetrahydro-pyran-3-yl-acetamide] was run?
**A.** Its Ki is 2.99 nM.

**Q.** For `O=C(CC1COCCO1)N[C@H]1CC[C@H](CCN2CCN(c3cccc4c3OCO4)CC2)CC1` (stereo partly drawn) [Example 3, Trans-N-{4-[2-(4-Benzo[1,3]dioxol-4-yl-piperazin-1-yl)-ethyl]-cyclohexyl}-2-[1,4]dioxan-2-yl-acetamide], which Ki is on record?
**A.** The Ki was 2.56 nM.

**Q.** `O=C(C[C@H]1CCCOC1)N[C@H]1CC[C@H](CCN2CCN(c3cccc4c3OCO4)CC2)CC1` (single isomer, unassigned) [Example 33, Trans-N-{4-[2-(4-Benzo[1,3]dioxol-4-yl-piperazin-1-yl)-ethyl]-cyclohexyl}-2-(R) or (S)-tetrahydro-pyran-3-yl-acetamide] was tested. Which Ki did it give?
**A.** The Ki was 3.92 nM.

**Q.** For `[2H]C1([2H])Oc2cccc(N3CCN(CC[C@H]4CC[C@H](NC(=O)C[C@H]5COCCO5)CC4)CC3)c2O1` [Example 78, N-trans-{4-[2-(4-Benzo(2,2-D2)-[1,3]dioxol-4-yl-piperazin-1-yl)-ethyl]-cyclohexyl}-2-(S)-[1,4]dioxan-2-yl-acetamide], which Ki is on record?
**A.** Its Ki is 2.46 nM.
